Measurements: patent US20210300900A1, “OGA INHIBITOR COMPOUNDS” (Janssen Pharmaceutica NV, priority 2018, published 2021)

By UniProt entry, the sequences of proteins in these tests, tags left out.
UniProt O60502, whole entry: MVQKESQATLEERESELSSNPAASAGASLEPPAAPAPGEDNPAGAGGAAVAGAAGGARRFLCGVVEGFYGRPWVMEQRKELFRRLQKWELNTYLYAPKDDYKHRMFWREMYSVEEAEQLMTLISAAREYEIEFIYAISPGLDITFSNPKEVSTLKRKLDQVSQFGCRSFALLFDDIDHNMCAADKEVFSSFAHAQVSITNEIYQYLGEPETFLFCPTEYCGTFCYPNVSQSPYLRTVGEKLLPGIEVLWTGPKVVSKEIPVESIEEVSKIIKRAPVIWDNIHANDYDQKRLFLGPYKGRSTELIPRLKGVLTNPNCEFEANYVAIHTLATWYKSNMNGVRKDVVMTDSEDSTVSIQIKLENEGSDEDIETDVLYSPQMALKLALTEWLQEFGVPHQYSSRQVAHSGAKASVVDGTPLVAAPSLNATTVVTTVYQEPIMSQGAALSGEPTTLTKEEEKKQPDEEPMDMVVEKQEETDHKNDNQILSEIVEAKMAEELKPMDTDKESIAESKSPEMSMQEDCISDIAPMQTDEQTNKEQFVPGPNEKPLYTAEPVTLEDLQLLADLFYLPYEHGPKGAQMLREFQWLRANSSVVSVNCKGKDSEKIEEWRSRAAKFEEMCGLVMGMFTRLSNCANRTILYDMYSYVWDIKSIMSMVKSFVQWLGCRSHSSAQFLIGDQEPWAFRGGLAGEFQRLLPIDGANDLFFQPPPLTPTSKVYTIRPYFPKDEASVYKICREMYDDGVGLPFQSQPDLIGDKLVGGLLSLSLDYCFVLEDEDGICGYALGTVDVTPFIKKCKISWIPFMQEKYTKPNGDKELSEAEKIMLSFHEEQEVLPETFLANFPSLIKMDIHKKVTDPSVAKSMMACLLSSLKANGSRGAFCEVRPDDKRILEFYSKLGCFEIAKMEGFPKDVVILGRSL

Target: recombinant human Meningioma Expressed Antigen 5 (MGEA5), also referred to as O-GcNAcase (OGA) (Homo sapiens, UniProt O60502)
Assay: OGA biochemical assay (inhibition of FM-GlcNAc hydrolysis, fluorescence)
Conditions: FM-GlcNAc substrate
Excerpt: The assay is based on the inhibition of the hydrolysis of fluorescein mono-β-D-N-Acetyl-Glucosamine (FM-GlcNAc) (Mariappa et al. 2015, Biochem J 470:255) by the recombinant human Meningioma Expressed Antigen 5 (MGEA5), also referred to as O-GcNAcase (OGA). The hydrolysis FM-GlcNAc (Marker Gene technologies, cat #M1485) results in the formation of B-D-N-glucosamineacetate and fluorescein. The fluorescence of the latter can be measured at excitation wavelength 485 nm and emission wavelength 538 nm. An increase in enzyme activity results in an increase in fluorescence signal. Full length OGA enzyme was purchased at OnGene (cat #TP322411). The enzyme was stored in 25 mM Tris.HCl, pH 7.3, 100 mM glycine, 10% glycerol at −20° C. Thiamet G and GlcNAcStatin were tested as reference compounds (Yuzwa et al. 2008 Nature Chemical Biology 4:483; Yuzwa et al. 2012 Nature Chemical Biology 8:393). The assay was performed in 200 mM Citrate/phosphate buffer supplemented with 0.005% Tween-20. […]
50 nl of a compound dissolved in DMSO was dispensed on Black Proxiplate TM 384 Plus Assay plates (Perkin Elmer, #6008269) and 3 μl fl-OGA enzyme mix added subsequently. […] Fluorescence was quantified in the Thermo Scientific Fluoroskan Ascent or the PerkinElmer EnVision with excitation wavelength 485 nm and emission wavelength 538 nm. […]

Enzymatic hOGA; pIC50: <5
Structure (SMILES): COc1cccc(C(C)N2CCC(Cc3ccc(F)nc3)C2)n1 (single isomer, unassigned)
